Test results published in patent US12357591B2, “Sublingual epinephrine compositions including pH-modifying excipients and penetration enhancers and methods for use thereof” (Nova Southeastern University, priority 2018, dated 2025).

Method: Frozen pig's heads were obtained from local abattoir. Then, they were defrosted at room temperature. The porcine mucosa were excised by dissecting the sublingual mucosa and removing the underlying connective tissue using a scalpel and fine tweezers using established surgical techniques. The excised mucosa were frozen on aluminum foil at −20° C. until used (<4 weeks).
The sublingual mucosa (floor of the mouth) excised from pigs were used as the diffusion membranes. Mcvilian buffer at various pH was used in the donor cell as a diffusion medium.
Before each experiment, the mucosal membranes were defrosted at room temperature and mounted between the donor and receptor chambers and clamped using a metal clamp. The receptor chamber that has a magnetic stirrer was filled with the diffusion medium before mounting the membranes and air bubbles were removed after mounting the membranes and before the experiment. The water bath was set at 37° C. for the circulating water in the jacketed Franz Cells. The mounted membranes were equilibrated with the diffusion medium for 30 min from both sides before the experiment and were checked for any leaks.
Aliquots were withdrawn from the receptor chamber using 6 inch-long needles (Popper & Sons. Inc, New Hyde Park, NYC) and 1 mL syringes at 5, 10, 15, 20, 30, 45, 60, 75, and 90 min. The withdrawn volumes were replaced with fresh medium.
Samples were transferred to HPLC vials for HPLC analysis according to USP Method.

In the case of `CNC[C@H](O)c1ccc(O)c(O)c1` [Epi, Epinephrine], the “cumulative permeated epinephrine (20 mg) per area” value (pH 5, 5 min) was 33.8 ± 1.8 μg/cm^2, the “cumulative permeated epinephrine (20 mg) per area” value (pH 5, 10 min) was 37.5 ± 0.6 μg/cm^2 and the “cumulative permeated epinephrine (20 mg) per area” value (pH 6, 20 min) was 15.7 ± 3.3 μg/cm^2. The “percentage of diffused epinephrine (%)” value (pH 8, 30 min) was 15.2 ± 0.23%.

Like-named read-outs stand apart in the source and are kept apart here.
